Binding of CDR-mutated scFvs to a peptide of the spike HR2 region

Reference: Engelhart et al. 2022, doi:10.1038/s41597-022-01779-4. File: FLAb, binding data.

Antigen: PDVDLGDISGINAS, a 14-residue peptide of the SARS-CoV-2 spike HR2 region.

Parent: Ab-14, a human scFv built as VH, three GGGGS repeats, VL. Only the CDRs of the light chain vary.
VH: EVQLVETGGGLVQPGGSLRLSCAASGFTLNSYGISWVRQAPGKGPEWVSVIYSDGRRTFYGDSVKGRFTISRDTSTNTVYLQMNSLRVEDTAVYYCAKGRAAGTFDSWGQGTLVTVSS
VL: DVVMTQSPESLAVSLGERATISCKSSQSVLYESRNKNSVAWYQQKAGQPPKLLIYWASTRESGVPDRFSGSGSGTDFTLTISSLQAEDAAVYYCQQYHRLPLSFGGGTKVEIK

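Phage display of a naive human antibody library on the peptide gave the parent. Variants in AAYL50 differ from the parent at up to three CDR positions; double and triple changes were sampled at random. Affinity was read by AlphaSeq, a pooled yeast mating assay with surface-displayed partners. Mating (16 h, 30 °C) was followed by selection of diploids and sequencing of their barcodes. Scores were corrected for input abundance and mapped to Kd with protein pairs of known affinity run in the same pool. Each pool was mated in three replicate cultures.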

Substitutions are numbered in sequence along the VL above, starting at 1 (not Kabat). All variants listed here change V39 of the VL, counted from its first residue. Kd is apparent (estimated from mating counts) and averaged on the log scale over replicates with a signal. Smaller is tighter. "no signal" means that the variant was in the library but no mating with the target was seen in any replicate; the authors take this as a sign of poor binding, and no number exists.

The variant S28T/V39L/A40K gave 6.8 µM (1 of 3 replicates; controls 4 of 9). The variant V39A/T59R/L102I gave 29 µM (3 of 3 replicates; controls 6 of 9). The variant S33N/V39I/H98S showed 32 nM (3 of 3 replicates; controls 3 of 9). The variant K36H/V39F/H98W showed 1.3 µM (3 of 3 replicates; controls 2 of 9). For S33M/V39D/P101E, the assay gave 28 µM (2 of 3 replicates; controls 2 of 9). The variant K36T/V39E gave no signal (0 of 3 replicates; controls 1 of 9). The variant V39C/W56A/S62W showed 2.5 nM (3 of 3 replicates; controls 3 of 9). With V39P/R60T/Q95P the result was no signal (0 of 3 replicates; controls 2 of 9). The variant E32G/V39R/A57H gave no signal (0 of 3 replicates; controls 0 of 9).

With S38F/V39C the result was no signal (0 of 3 replicates; controls 0 of 9). With Y31W/V39P/R60L the result was 4.7 µM (1 of 3 replicates; controls 2 of 9). For S38W/V39K/L102N, the assay gave no signal (0 of 3 replicates; controls 0 of 9). The variant N37F/V39Y/L102A showed no signal (0 of 3 replicates; controls 0 of 9). The variant Q27S/V29Q/V39W showed 46 µM (1 of 3 replicates; controls 1 of 9). For L30F/V39Y/T59Q, the assay gave 47 µM (3 of 3 replicates; controls 3 of 9). The variant R34F/V39F/T59P showed 7.2 µM (2 of 3 replicates; controls 3 of 9). For K36G/V39S/S62M, the assay gave 4.7 µM (2 of 3 replicates; controls 1 of 9). The variant E32K/V39K/L102F gave no signal (0 of 3 replicates; controls 1 of 9).

The variant V39S gave no signal (0 of 3 replicates; controls 1 of 9). The variant V39R/A40R/A57E showed 4.1 µM (2 of 3 replicates; controls 0 of 9). The variant E32W/V39Q/H98R showed 24 µM (1 of 3 replicates; controls 3 of 9). With V39C/R99T/L102Q the result was 85 µM (3 of 3 replicates; controls 4 of 9). With V29T/R34E/V39E the result was no signal (0 of 3 replicates; controls 0 of 9). For K24L/Q27Y/V39H, the assay gave no signal (0 of 3 replicates; controls 0 of 9). The variant V39K/E61G/Q95E gave no signal (0 of 3 replicates; controls 0 of 9). With S28D/N35H/V39K the result was 1.7 µM (1 of 3 replicates; controls 0 of 9). The variant V39K/A57F/Q96W gave 5.4 µM (1 of 3 replicates; controls 0 of 9).

The variant S33L/R34E/V39P showed 13 µM (2 of 3 replicates; controls 2 of 9). With R34W/N37T/V39I the result was 32 nM (3 of 3 replicates; controls 4 of 9). The variant Y31Q/V39R/H98K showed no signal (0 of 3 replicates; controls 0 of 9). The variant S25Y/V39G/Q96N gave no signal (0 of 3 replicates; controls 0 of 9). For S26C/L30H/V39M, the assay gave 3.3 µM (3 of 3 replicates; controls 0 of 9). The variant V39T showed 37 µM (2 of 3 replicates; controls 4 of 9). The variant S25P/V39A/Q96L gave no signal (0 of 3 replicates; controls 0 of 9). The variant E32R/V39L showed no signal (0 of 3 replicates; controls 0 of 9). The variant S28G/R34Y/V39M showed 170 nM (3 of 3 replicates; controls 5 of 9).

The variant S28H/V39P/R99E gave no signal (0 of 3 replicates; controls 0 of 9). With V39Q/Q96E the result was 920 µM (1 of 3 replicates; controls 3 of 9). For S38A/V39D/A40Q, the assay gave no signal (0 of 3 replicates; controls 1 of 9). The variant V39E/A57E/S103Q showed no signal (0 of 3 replicates; controls 0 of 9).

Background: pairings of library AAYL50 with three empty control strains gave a value in 18% of cases (median 15 µM, 5th percentile 970 nM). Values in that range, when seen in few replicates, are hard to tell from nonspecific mating. The control count says in how many pairings with the empty strains this scFv gave a signal.